Reference: PMC7756140

The chains behind the UniProt entries cited, without tags or fusion partners. Residues count along the entry.
UniProt P48061, 22-89: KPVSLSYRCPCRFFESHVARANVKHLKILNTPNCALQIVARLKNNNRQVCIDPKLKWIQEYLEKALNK

Legend:
Experiment in all cases: MST
CXCR4^QTY (E. coli) = biological target: CXCR4^QTY (E. coli)
[1] = biological target: CXCR4^QTY – SZ158a (E. coli)
[2] = biological target: CXCR4^QTY – SZ146a (E. coli)

Substance “CXCL12 (from UniProt P48061-2 22-89) (ligand)” has a Kd (CXCR4^QTY (E. coli)) of 17.3 nM, a Kd [1] of 247 nM and a Kd [2] of 301 nM.
